This assay deals with hSK2A^+ (Homo sapiens, UniProt Q9H2S1, DUP58-58). The assay can be described thus: Membrane potential sensitive dye fluorescence assay (FLIPR384) in tsA201 cells stably expressing SK2.

Sequences of proteins named here, by UniProt entry; tags and fusion partners are left off. A line that says so, or that is headed by a name, gives the form on record, which may keep a tag or linker.
UniProt Q9H2S1, with tags, fused parts or gaps DUP58-58: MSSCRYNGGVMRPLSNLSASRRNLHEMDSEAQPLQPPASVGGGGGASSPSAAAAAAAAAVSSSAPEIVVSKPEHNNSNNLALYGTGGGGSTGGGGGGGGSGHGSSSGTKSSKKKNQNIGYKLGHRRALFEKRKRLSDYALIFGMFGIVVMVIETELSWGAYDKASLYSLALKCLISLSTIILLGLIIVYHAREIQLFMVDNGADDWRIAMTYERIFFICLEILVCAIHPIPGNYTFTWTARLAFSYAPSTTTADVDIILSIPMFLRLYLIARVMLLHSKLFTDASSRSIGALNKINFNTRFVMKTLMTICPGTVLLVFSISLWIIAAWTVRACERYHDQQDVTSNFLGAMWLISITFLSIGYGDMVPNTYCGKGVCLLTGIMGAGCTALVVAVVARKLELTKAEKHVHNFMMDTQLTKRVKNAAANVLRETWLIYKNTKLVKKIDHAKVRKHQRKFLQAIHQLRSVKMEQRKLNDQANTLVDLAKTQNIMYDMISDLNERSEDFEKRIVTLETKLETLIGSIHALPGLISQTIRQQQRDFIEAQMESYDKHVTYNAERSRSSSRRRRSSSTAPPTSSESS

Molecule `Nc1nc2ccc(OC(F)(F)F)cc2s1` [Riluzole, riluzole] yielded an EC50 of 29 µM. For the same molecule, the nH (hyperpolarization induced by riluzole, FIG. 10) came out at 1.4.

What is called EC50 is the concentration needed to bring the measured effect to its halfway point. Read a high EC50 as a less potent agent.

Values taken from patent US20050250090A1, “Assay systems and methods for detecting molecules that interact with SK2 channels” (priority 2003, published 2005).
